Experimental data: ChEMBL document CHEMBL4304814, “Fluorinated Analogues of the Histone Deacetylase Inhibitor Vorinostat (Zolinza): Validation of a Chiral Hybrid Bioisostere, BITE” (ACS Med Chem Lett, 2019)
Calls of active or inactive are those of the source. The rule behind the calls is not given here.

The chains behind the UniProt entries cited, without tags or fusion partners.
UniProt Q13547, whole entry: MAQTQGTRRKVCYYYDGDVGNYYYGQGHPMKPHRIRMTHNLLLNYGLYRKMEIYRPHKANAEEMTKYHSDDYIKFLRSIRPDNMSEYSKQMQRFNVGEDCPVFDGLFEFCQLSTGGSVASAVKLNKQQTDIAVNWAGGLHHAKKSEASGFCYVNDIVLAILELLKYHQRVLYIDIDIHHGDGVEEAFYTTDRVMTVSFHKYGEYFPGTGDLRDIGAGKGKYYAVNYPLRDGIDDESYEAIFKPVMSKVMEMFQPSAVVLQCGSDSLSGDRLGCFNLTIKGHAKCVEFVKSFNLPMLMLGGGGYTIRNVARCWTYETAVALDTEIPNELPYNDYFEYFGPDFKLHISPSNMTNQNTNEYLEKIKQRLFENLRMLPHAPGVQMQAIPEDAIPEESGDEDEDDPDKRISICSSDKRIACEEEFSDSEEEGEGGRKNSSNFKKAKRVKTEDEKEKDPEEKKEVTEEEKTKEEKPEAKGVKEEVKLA

Columns and labels:
[1] = target: T1, Protein deacetylase HDAC6 (Homo sapiens) (UniProt Q9UBN7); assay: Inhibition of full length recombinant GST-tagged N-terminal human HDAC6 expressed in baculovirus infected Sf9 insect cells using ZMAL (Z-Lys(Ac)-AMC) as substrate incubated for 90 mins by fluorescence based assay
T1 sequence (whole entry): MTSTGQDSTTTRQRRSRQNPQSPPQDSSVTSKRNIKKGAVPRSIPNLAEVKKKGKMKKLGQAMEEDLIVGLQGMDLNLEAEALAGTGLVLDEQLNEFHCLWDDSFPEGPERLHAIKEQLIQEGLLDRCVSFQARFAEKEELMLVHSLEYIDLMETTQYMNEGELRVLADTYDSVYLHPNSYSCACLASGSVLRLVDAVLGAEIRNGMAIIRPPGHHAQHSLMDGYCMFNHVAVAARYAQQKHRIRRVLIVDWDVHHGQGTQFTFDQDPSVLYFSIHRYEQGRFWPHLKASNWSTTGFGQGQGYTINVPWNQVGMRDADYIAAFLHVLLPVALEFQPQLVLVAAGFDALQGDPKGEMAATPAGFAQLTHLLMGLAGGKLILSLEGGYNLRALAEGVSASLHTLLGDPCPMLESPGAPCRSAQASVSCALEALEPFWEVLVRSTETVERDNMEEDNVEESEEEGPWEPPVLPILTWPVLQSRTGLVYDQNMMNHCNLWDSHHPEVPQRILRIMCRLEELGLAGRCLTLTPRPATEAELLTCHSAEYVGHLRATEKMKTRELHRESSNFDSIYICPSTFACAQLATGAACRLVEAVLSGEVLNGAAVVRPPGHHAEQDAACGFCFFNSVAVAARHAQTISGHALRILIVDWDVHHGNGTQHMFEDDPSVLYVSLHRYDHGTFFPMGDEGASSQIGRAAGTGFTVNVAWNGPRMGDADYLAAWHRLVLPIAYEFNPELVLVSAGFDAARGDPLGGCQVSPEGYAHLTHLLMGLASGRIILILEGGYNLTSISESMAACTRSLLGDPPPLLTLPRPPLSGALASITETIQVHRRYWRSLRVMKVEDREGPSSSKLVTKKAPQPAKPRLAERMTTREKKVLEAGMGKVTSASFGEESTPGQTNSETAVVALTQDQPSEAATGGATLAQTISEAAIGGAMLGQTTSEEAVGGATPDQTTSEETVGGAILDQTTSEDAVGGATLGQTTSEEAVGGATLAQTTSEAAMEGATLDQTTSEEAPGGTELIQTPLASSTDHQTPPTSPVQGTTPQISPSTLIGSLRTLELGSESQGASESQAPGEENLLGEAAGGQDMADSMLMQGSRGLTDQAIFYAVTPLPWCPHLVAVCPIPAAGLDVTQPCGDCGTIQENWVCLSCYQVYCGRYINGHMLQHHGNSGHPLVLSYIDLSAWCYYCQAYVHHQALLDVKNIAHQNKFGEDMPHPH

[2] = target: Histone deacetylase 1 (Homo sapiens) (UniProt Q13547); assay: Inhibition of full length recombinant FLAG/His-tagged C-terminal human HDAC1 expressed in baculovirus infected Sf9 insect cells using ZMAL (Z-Lys(Ac)-AMC) as substrate incubated for 90 mins by fluorescence based assay

SMILES	inhibition [1]	inhibition [2]
O=C(CCCCCCC(=O)Nc1ccc(CC(=O)OCCCCCCCC(F)CF)cc1)NO (stereo not given)	Active	
O=C(CCCCCCC(=O)Nc1ccc(CC(=O)OCCCCCCC(F)CF)cc1)NO (stereo not given)	Active	
O=C(CCCCCCC(=O)Nc1ccc(CC(=O)OCCC(F)CF)cc1)NO (stereo not given)	Active	Active
O=C(CCCCCCC(=O)Nc1ccc(CC(=O)OCCCCCC(F)CF)cc1)NO (stereo not given)	Active	Active
CCCCOC(=O)Cc1ccc(NC(=O)CCCCCCC(=O)NO)cc1	Active	
CCCCCCOC(=O)Cc1ccc(NC(=O)CCCCCCC(=O)NO)cc1	Active	
CCCCCCCCCCOC(=O)Cc1ccc(NC(=O)CCCCCCC(=O)NO)cc1	Active	
O=C(CCCCCCC(=O)Nc1ccc(CC(=O)OCCCC(F)CF)cc1)NO (stereo not given)	Active	Active
CCCCCOC(=O)Cc1ccc(NC(=O)CCCCCCC(=O)NO)cc1	Active	
O=C(CCCCCCC(=O)Nc1ccc(CC(=O)OCCCCC(F)CF)cc1)NO (stereo not given)	Active	Active
CCCCCCCCOC(=O)Cc1ccc(NC(=O)CCCCCCC(=O)NO)cc1	Active	
